Source: US20260200947A1, “FUSED CYCLIC COMPOUNDS AND USE THEREOF” (Jacobio Pharmaceuticals Co., Ltd., priority 2022, published 2026)

Columns and labels:
[1] = test system: AsPC-1 cells (K-Ras G12D)

Row | IC50 (SW620 cells (K-Ras G12V)) | IC50 [1] | SMILES | IC50 (AGS cells (K-Ras G12D))
1 | 3.26 nM | – | C#Cc1c(F)ccc2cc(N)cc(-c3nc4c5c(nc(OC[C@@]67CCCN6C[C@H](F)C7)nc5c3F)N3C(COCC[C@@H]3C)C4=C)c12 (stereo partly drawn) [Compound 128] | –
2 | – | – | C#Cc1c(F)ccc2cc(O)cc(-c3nc4c5c(nc(OC[C@@]67CCCN6C[C@H](F)C7)nc5c3F)N3CCOCC3C4=C)c12 (stereo partly drawn) [Compound 12] | 94.7 nM
3 | – | – | C[C@H]1CCOC[C@H]2COc3c(Cl)c(-c4ccc(F)c5sc(N)c(C#N)c45)c(F)c4nc(OC[C@@]56CCCN5C[C@H](F)C6)nc(c34)N21 [Compound 158] | 0.967 nM
4 | 2.53 nM | 35.6 nM | C#Cc1c(F)ccc2cc(N)cc(-c3nc4c5c(nc(OC[C@@]67CCCN6CC(=C)C7)nc5c3F)N3CCCOC[C@H]3CO4)c12 [Compound 7] | 3.23 nM
